For one compound, IC50 results are on record in patent US12435057B2, “Triazole carboxylic acids as LPA antagonists” (BRISTOL-MYERS SQUIBB COMPANY, priority 2019, dated 2025).

By UniProt entry, the sequences of proteins in these tests, tags left out.
UniProt Q92633, whole entry: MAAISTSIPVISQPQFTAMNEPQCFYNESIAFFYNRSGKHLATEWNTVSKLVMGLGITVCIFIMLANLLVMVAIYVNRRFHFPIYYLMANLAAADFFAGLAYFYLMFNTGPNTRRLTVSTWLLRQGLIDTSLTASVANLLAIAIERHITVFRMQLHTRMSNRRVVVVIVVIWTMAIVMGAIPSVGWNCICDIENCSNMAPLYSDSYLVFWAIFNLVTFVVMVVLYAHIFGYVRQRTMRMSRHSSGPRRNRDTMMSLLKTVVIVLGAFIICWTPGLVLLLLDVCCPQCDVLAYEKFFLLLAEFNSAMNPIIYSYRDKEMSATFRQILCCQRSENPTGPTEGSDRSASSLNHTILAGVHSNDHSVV

For this test, the target named is human LPA1 (Homo sapiens, UniProt Q92633). Nature of the test: LPA1 functional antagonist assay (calcium flux). The conditions noted are these: read-out: hLPA1 IC50; CHO cells overexpressing human LPA1; inhibition of calcium flux induced by 10 nM LPA. As for the experimental part:
The effectiveness of compounds of the present invention as LPA1 inhibitors can be determined in an LPA1 functional antagonist assay as follows: • Chinese hamster ovary cells overexpressing human LPA1 were plated overnight (15,000 cells/well) in poly-D-lysine coated 384-well microplates (Greiner bio-one, Cat #781946) in DMEM/F12 medium (Gibco, Cat #11039). Following overnight culture, cells were loaded with calcium indicator dye (AAT Bioquest Inc, Cat #34601) for 30 minutes at 37° C. The cells were then equilibrated to room temperature for 30 minutes before the assay. Test compounds solubilized in DMSO were transferred to 384 well non-binding surface plates (Corning, Cat #3575) using the Labcyte Echo acoustic dispense and diluted with assay buffer [[…] with calcium/magnesium (Gibco Cat #14025-092), 20 mM HEPES (Gibco Cat #15630-080) and 0.1% fatty acid free BSA (Sigma Cat #A9205)] to a final concentration of 0.5% DMSO. Diluted compounds were added to the cells by FDSS6000 (Hamamatsu) at final concentrations ranging from 0.08 nM to 5 μM. and were then incubated for 20 min at room temperature at which time LPA (Avanti Polar Lipids Cat #857130C) was added at final concentrations of 10 nM to stimulate the cells. […] IC50 values were determined by fitting data to a 4-parameter logistic equation (GraphPad Prism, San Diego CA). b. […]
On the technique in general: Calcium flux is commonly read through the fluorescence of an indicator in the cells.

For `Cc1nc(-c2nnn(C)c2COC(=O)N(C)CC2CCC2)ccc1O[C@@H]1CCO[C@H](C(=O)O)C1` (relative stereo), the IC50 – broadly, the concentration that gives 50% inhibition – was 682 nM.
